Data taken from US20190169140A1, “IDO1 INHIBITOR AND PREPARATION METHOD AND APPLICATION THEREOF” (SHANDONG LUYE PHARMACEUTICAL CO., LTD., priority 2016, published 2019).

Protein sequences, listed by entry. Tags and fused reporters are not part of them.
UniProt P14902, whole entry: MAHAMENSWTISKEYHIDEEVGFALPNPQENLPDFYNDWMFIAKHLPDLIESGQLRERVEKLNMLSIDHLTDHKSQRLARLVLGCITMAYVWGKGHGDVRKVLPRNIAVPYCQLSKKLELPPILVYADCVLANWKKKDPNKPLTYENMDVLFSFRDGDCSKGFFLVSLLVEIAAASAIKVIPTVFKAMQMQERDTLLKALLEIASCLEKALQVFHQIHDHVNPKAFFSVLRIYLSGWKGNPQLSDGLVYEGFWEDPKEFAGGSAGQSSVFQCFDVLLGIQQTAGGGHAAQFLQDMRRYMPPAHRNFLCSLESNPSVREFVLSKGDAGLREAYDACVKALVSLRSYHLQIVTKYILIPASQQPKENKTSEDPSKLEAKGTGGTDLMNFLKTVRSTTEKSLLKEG

Target: recombinant human IDO1 enzyme (Homo sapiens, UniProt P14902)
Assay: Test of hIDO1 for enzymatic activity in vitro (NFK Green fluorescence)
Settings: read-out: Enzyme IC50
Method: 1. Test of hIDO1 for Enzymatic Activity In Vitro
1.1 Purpose of Experiment:
Changes in production of NFK, an IDO1 enzymatic metabolite were detected with NFK Green™ fluorescent molecules. With an IC50 value of a compound as an index, an inhibitory effect of the compound on recombinant human IDO1 enzyme was evaluated.
The compound was diluted with dimethyl sulfoxide (DMSO) to 1 mM, with 10 gradients, each 3-fold dilution, in duplicate. 48 μL of 50 mM phosphate buffer, having pH of 6.5, was transferred by the Bravo automatic liquid processing platform to the compound plate. Then 2 μL of an already diluted compound/DMSO solution was added. After even mixing, 10 μL of the resultant mixture was transferred to the enzymatic reaction plate.
IDO1 enzyme was diluted to 20 nM in a reaction buffer (50 mM phosphate buffer with pH of 6.5, 0.1% of Tween-20, 2% of glycerol, 20 mM ascorbic acid, 20 μg/ml catalase, and 20 μM methylene blue), 20 μL of the diluted IDO1 enzyme was transferred to the enzymatic reaction plate, and incubated at 23° C. for 30 minutes. 10 μL of 400 μM L-type tryptophan substrate was added to start reaction. The incubation lasted at 23° C. for 90 minutes. 10 μL of NFK Green™ fluorescent dye was added. […] After incubation at 37° C. for 4 hours, an Envision multi-functional plate reader was used for reading (Ex 400 nm/Em 510 nm). […]

Q: Which IC50 does the source give for `C=CCNC(=S)NCCOc1nonc1C(=NO)Nc1ccc(F)c(Br)c1` here?
A: Its IC50 is 3.08 µM.
